According to PubChem BioAssay AID651658 (Broad Institute, 2012):
The list shows a part of the results, in another mix than the full data. Calls of active or inactive are those of the source.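 The calls were made as follows: active = mean Tm shift, scaled 0 neutral to 100 positive control, at about 1.3% or above, every replicate too (limit read from the data); inconclusive = no clear call, values can overlap the other calls; inactive = the rest.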

By UniProt entry, the sequences of proteins in these tests, tags left out.
UniProt Q9HCT0, whole entry: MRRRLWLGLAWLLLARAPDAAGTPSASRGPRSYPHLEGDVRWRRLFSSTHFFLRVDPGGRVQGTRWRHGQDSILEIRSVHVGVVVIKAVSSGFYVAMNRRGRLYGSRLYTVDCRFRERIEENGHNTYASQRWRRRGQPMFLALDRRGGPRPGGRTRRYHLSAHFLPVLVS

target: Fibroblast growth factor 22 (Homo sapiens) (UniProt Q9HCT0); test: FGF22 ligand-induced thermal stabilization – biophysical, thermal shift, single point, FGF22 synaptogenesis inhibitor project, primary screen (AID 651658); details: recombinant FGF22 thermal shift, SYPRO orange fluorescence; at 9.99 µM; active compounds read high; percent of sucrose octasulfate shift, DMSO zero

SMILES | activity (Tm shift, normalised)
CCCC1OP(=O)(Nc2ccccc2)OCC1CC (stereo not given) | inactive: 0.481%
CN(C)C1(CNC(=O)c2ccc(S(C)(=O)=O)cc2)CCCCC1 | inactive: 0.129%
O=[N+]([O-])c1cc([N+](=O)[O-])c(Nc2nnnn2CCO)c([N+](=O)[O-])c1 | inactive: -0.007%
CCOC(=O)C(CC)C1=NC(C)(C)Cc2ccccc21.O=[N+]([O-])c1cc([N+](=O)[O-])c(O)c([N+](=O)[O-])c1 (stereo not given) | inactive: 1.06%
CN1CCCCC1COC(=O)C1(O)c2ccccc2CCc2ccccc21 (stereo not given) | inactive: -0.007%
O=[As](O)(c1cccs1)c1cccs1 | inactive: 0.35%
NS(=O)(=O)c1cccc(NC(=O)COC(=O)C(O)(c2ccccc2)c2ccccc2)c1 | inactive: -0.135%
COc1ccc(-c2ccccn2)cc1.O=[N+]([O-])c1cc([N+](=O)[O-])c(O)c([N+](=O)[O-])c1 | inactive: -0.421%
CCCOc1ccc(NP(C)(=O)Oc2ccc(Cl)cc2)cc1 (stereo not given) | inactive: 0.034%
Nc1cccc([As](=O)(O)c2ccccc2)c1 | inactive: 0.508%
CCOP(=O)(Nc1ccc(C)cn1)OCC | inactive: -0.245%
CN(CCCl)Cc1cc(Cl)c(NC2=NCCN2)c(Cl)c1 | inactive: -0.158%
CCC1=CC2Cc3nc4ccc(Cl)cc4c(N)c3C(C1)C2 (stereo not given) | inactive: -0.007%
O=C(O)C(O)c1ccc(N(CCCl)CCCl)cc1.c1ccncc1 (stereo not given) | inactive: 0.084%
O=[N+]([O-])c1cc([N+](=O)[O-])c(-n2nnc3ccccc32)c([N+](=O)[O-])c1 | inactive: 0.236%
CCOP(=O)(NC(=NC(C)c1ccccc1)NC(C)c1ccccc1)OCC (stereo not given) | inactive: -0.292%
O=P1(N(CCCl)CCCl)NCCC(C(F)(F)F)O1 (stereo not given) | inactive: -0.185%
CN(Cc1cccnc1)C(=O)COc1ccc(Cl)c(Cl)c1.O=[N+]([O-])c1cc([N+](=O)[O-])c(O)c([N+](=O)[O-])c1 | active: 1.41%
CC(C)(C)C(=O)NC(Sc1ncccn1)C(Cl)(Cl)Cl (stereo not given) | inactive: 0.144%
COc1ccccc1CNC(=O)COC(=O)C(O)(c1ccccc1)c1ccccc1 | inactive: 0.182%
O=[N+]([O-])c1cc([N+](=O)[O-])c(-c2cnn(-c3ccccc3)c2)c([N+](=O)[O-])c1 | inactive: -0.242%
CC(C)/C=N\N=C(\N)N[N+](=O)[O-] | inactive: 0.345%
CN(C(=O)Cc1ccc(Cl)c(Cl)c1)[C@@H]1CCCC[C@H]1N1CCCC1 | inactive: 0.051%

SMILES | activity (Tm shift, normalised)
CN(C(=O)Cc1ccc(Cl)c(Cl)c1)C1CCCC[C@@H]1N1CCCC1 (stereo not given in full) | inactive: -0.119%
COP1(=S)c2c(C)nn(CCC#N)c2N=C(c2ccc(F)cc2)N1C (stereo not given) | inactive: 0.192%
CP(=O)(Nc1ccc(SC(F)(F)F)cc1)Oc1ccc(Cl)cc1 (stereo not given) | inactive: -0.085%
CP(=O)(Oc1ccccc1)OC(c1ccccc1)C(F)(F)F (stereo not given) | inactive: -0.171%
COC(=O)C1(C)COP(=O)(N2CCCC2)OC1 (stereo not given) | inactive: -0.692%
CP(=O)(NC(=O)Nc1ccccc1)Oc1ccccc1 (stereo not given) | inactive: -0.245%
CCc1ccc(OP(C)(=O)N2CCN(c3ccc([N+](=O)[O-])cc3)CC2)cc1 (stereo not given) | inactive: -0.353%
O=C(Nc1ccncc1[N+](=O)[O-])c1ccc([N+](=O)[O-])cc1[N+](=O)[O-] | inactive: 0.17%
CCOC(=O)c1ccc(NP(C)(=O)Oc2ccc(OC)cc2)cc1 (stereo not given) | inactive: -0.145%
CCOC(=O)c1ccc(NC(=O)C(C)(CCl)SC)cc1 (stereo not given) | inactive: -0.337%
O=[N+]([O-])c1cc([N+](=O)[O-])c(O)c([N+](=O)[O-])c1.c1ccc(Oc2ccncc2)cc1 | inactive: 0.257%
O=C(OC1CN2CCC1CC2)c1cccc([N+](=O)[O-])c1 (stereo not given) | inactive: -0.102%
CP(=O)(Nc1ccccn1)Oc1ccc(Cl)cc1 (stereo not given) | inactive: 0.153%
CC1CCNP(=O)(N(CCCl)CCCl)O1 (stereo not given) | inactive: -0.184%
O=C(O)C(=O)c1ccc(N(CCCl)CCCl)cc1.c1ccc(Nc2ccccc2)cc1 | inactive: 0.173%
CCOC(=O)Nc1ccc([As](=O)(O)O)c(O)c1 | inactive: -0.045%
CCCCOc1ccc(C(=O)NCC2(N3CCCCC3)CCCCC2)cc1OC | inactive: -0.324%
CCOC(=O)Nc1cccc([As](=O)(O)O)c1 | inactive: -0.079%
CP(=O)(Nc1ccccc1Br)Oc1ccccc1 (stereo not given) | inactive: -0.075%
O=[N+]([O-])c1ccc(Nc2ccc(Oc3ccc([N+](=O)[O-])cc3[N+](=O)[O-])cc2)c([N+](=O)[O-])c1 | inactive: -0.21%
O=P(Nc1ccccn1)(c1cccc2ccccc12)c1cccc2ccccc12 | inactive: -0.076%
Cc1cc(SC(NC=O)C(Cl)(Cl)Cl)ncn1 (stereo not given) | inactive: 0.156%
